Drawing on patent publication EP4840855A1, “SULFONAMIDE DERIVATIVE, PREPARATION METHOD THEREFOR AND USE THEREOF” (dated 2026), this text covers IC50 and Fold selectivity for two molecules.

Protein sequences, listed by entry. Tags and fused reporters are not part of them.
UniProt Q9NRF8, whole entry: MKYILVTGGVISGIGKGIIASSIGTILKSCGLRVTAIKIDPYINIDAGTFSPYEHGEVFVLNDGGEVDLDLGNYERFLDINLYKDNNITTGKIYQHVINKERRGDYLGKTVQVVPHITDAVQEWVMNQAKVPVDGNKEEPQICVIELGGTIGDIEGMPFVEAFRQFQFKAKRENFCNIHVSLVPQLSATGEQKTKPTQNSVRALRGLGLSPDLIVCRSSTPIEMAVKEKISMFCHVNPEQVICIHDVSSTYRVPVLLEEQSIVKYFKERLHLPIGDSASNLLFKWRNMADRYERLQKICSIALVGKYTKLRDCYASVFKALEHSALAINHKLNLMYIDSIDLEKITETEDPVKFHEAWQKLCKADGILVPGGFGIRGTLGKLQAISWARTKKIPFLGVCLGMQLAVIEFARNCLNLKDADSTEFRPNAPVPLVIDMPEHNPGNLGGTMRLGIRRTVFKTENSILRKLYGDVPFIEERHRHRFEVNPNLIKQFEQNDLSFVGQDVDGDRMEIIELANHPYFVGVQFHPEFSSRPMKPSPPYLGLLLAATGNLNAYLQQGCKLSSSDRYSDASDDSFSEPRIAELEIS

The test system of experiment [1] is Jurkat (Clone E6-1) cells. The experiment can be described thus: Inhibition on Jurkat cell proliferation (CellTiter-Glo cell viability). The conditions noted are these: 72 hours culture. On the technique in general: In ATP-based viability assays light output follows the ATP content of the culture.
Experiment [2] has as its system BxPC-3 cells (human primary pancreatic cancer cells). Put plainly: Inhibition on BxPC-3 cell proliferation (CellTiter-Glo cell viability). The conditions noted are these: 120 hours culture. The procedure:
The following method was used to determine the effect of the compounds of the present disclosure on the proliferation of BxPC-3 cells (human primary pancreatic cancer cells). BxPC-3 cells were purchased from the Cell Resource Center of Shanghai Institutes for Biological Sciences, Chinese Academy of Sciences, and were cultured in DMEM medium containing 10% fetal bovine serum, 100 U penicillin, and 100 µg/mL streptomycin. Cell viability was determined using CellTiter-Glo® Luminescent Cell Viability Assay kit (Promega, catalog number G7573).
The experimental method was performed according to the steps in the kit's manual, briefly described as follows: The test compound was first dissolved in DMSO to prepare a 10 mM stock solution, then diluted with medium to prepare test samples, with a final concentration range of the compound from 10000 nM to 1.52 nM. Cells in logarithmic growth phase were seeded into a 96-well cell culture plate at a density of 1000 cells per well, then the test compounds were added, and the cells were cultured in a 37°C CO2 incubator for 120 hours. After culture was completed, 50 µL of CellTiter-Glo detection reagent was added to each well, the plate was shaken for 5 minutes, then allowed to stand for 10 minutes, and then the luminescence value of each well of the sample was read on a microplate reader using Luminescence mode. The percentage inhibition rates of the compounds at each concentration point were calculated by comparing with the value of a control group (0.1% DMSO). Then nonlinear regression analysis was performed on compound concentration logarithm-inhibition rate in GraphPad Prism 9 software to obtain the IC50 values of the compounds for inhibiting cell proliferation, as shown in Table 4. Table 4 IC50 data for inhibition on BxPC-3 cell proliferation by the compounds of the present disclosure

Experiment [3] concerns the target human cytidine triphosphate synthase 2 (hCTPS2) (Homo sapiens, UniProt Q9NRF8). Put plainly: Inhibition on hCTPS2 enzyme activity (ADP-Glo Kinase Assay), selectivity hCTPS1 versus hCTPS2. The procedure: The following method was used to determine the degree of inhibition on human cytidine triphosphate synthase 2 (hCTPS2) enzyme activity by the compounds of the present disclosure in vitro. ADP-Glo™ Kinase Assay kit (catalog number V9102) from Promega was used. The kit's manual may be referred for a detailed experimental procedure.
The experimental procedure was briefly described as follows: The reaction was performed in a buffer containing 50 mM 4-hydroxyethylpiperazineethanesulfonic acid (HEPES), 10 mM magnesium chloride, 5 mM potassium chloride, 0.01% Pluronic F127, and 4 mM dithiothreitol in a 384-well plate. First, 100 nL of gradient-diluted compound was transferred to a 384-well reaction plate via a nanoliter acoustic liquid transfer system (manufacturer: Labcyte; catalog number: Echo 655), and 2.5 µL of buffer containing hCTPS2 was added, followed by incubation in a 25°C incubator for 10 minutes. Then 2.5 µL of buffer containing ATP and UTP was added, followed by incubation in a 25°C incubator for 10 minutes. Finally, 5 µL of buffer containing GTP and L-glutamine (L-Gln) was added to initiate the reaction. The final reaction system was: 40 nM hCTPS2, 120 µM ATP, 160 µM UTP, 60 µM GTP, 100 µM L-Glutamine, 1% DMSO, with a total assay volume of 10 µL. The reaction was performed for 120 minutes, then 10 µL of ADP-Glo Reagent was added to terminate the reaction, followed by incubation for 1 hour. Then 20 µL of Kinase Detection Reagent was added, and after 1 hour, the chemiluminescence value was recorded on an Envision multilabel microplate detector (manufacturer: PerkinElmer; catalog number: Envision 2104). The percentage inhibition rates of the compounds at each concentration were calculated by comparing the chemiluminescence intensity ratio with a control group (0.1% DMSO). The IC50 value of the compounds were obtained by nonlinear regression analysis of compound concentration logarithm-inhibition rate using GraphPad Prism 5 software.
The fold selectivity between CTPS1 and CTPS2 was calculated according to the following equation: Fold selectivity = hCTPS2 IC50/hCTPS1 IC50 [formula]
For orientation: In ADP-Glo the light output rises with the ADP produced.

For the molecule `CCOc1cncc(-c2ccc(NC(=O)C3(c4cc(NS(=O)(=O)C5CC5)ncn4)CC4CC4C3)c(F)c2)n1` (stereo not drawn), the half-inhibitory concentration (IC50) came out at 11.1 nM in experiment [1] and 16.4 nM in experiment [2].

Consider `CCOc1cncc(-c2cnc(C(=O)NC3(c4cc(NS(=O)(=O)C5CC5)ncn4)CC4CC4C3)s2)n1` (stereo not drawn), for which the IC50 in experiment [1] was 4.32 nM; in experiment [3] (read-out: hCTPS2 IC50, 40 nM hCTPS2, 120 µM ATP, 160 µM UTP, 60 µM GTP, 100 µM L-Glutamine, 120 minutes), above 10000 nM; in experiment [2] it was 24.8 nM. In addition, the Fold selectivity in experiment [3] (Fold selectivity = hCTPS2 IC50/hCTPS1 IC50) was above 1000.

What is called IC50 is the concentration needed to halve the response being measured.
